One compound from BindingDB's records for doi:10.1021/jm980290i (Research Triangle Institute, 1998) can be followed below.

A word on the Ki: it is the dissociation constant of the complex between target and ligand, obtained from inhibition or displacement.

The nature of this experiment: Inhibition of [35S]GTP-gamma-S, binding in guinea pig caudate stimulated by SNC80 (Opioid receptor delta 1). In general terms: GTPγS is a poorly hydrolysed GTP analogue; its binding reports G protein activation.

Compound `C[C@H]1C2CCCC1(c1cccc(O)c1)CCN2C` (stereo partly drawn) [3-((R)-2,9-Dimethyl-2-aza-bicyclo[3.3.1]non-5-yl)-phenol] came in with an inhibition constant (Ki) of 0.75 µM. This counts as sub-micromolar.
